The source of these data is patent US8916526B2, “Flavanone derivative” (National University Corporation Okayama University, priority 2009, dated 2014).

By UniProt entry, the sequences of proteins in these tests, tags left out.
UniProt P0AES4, whole entry: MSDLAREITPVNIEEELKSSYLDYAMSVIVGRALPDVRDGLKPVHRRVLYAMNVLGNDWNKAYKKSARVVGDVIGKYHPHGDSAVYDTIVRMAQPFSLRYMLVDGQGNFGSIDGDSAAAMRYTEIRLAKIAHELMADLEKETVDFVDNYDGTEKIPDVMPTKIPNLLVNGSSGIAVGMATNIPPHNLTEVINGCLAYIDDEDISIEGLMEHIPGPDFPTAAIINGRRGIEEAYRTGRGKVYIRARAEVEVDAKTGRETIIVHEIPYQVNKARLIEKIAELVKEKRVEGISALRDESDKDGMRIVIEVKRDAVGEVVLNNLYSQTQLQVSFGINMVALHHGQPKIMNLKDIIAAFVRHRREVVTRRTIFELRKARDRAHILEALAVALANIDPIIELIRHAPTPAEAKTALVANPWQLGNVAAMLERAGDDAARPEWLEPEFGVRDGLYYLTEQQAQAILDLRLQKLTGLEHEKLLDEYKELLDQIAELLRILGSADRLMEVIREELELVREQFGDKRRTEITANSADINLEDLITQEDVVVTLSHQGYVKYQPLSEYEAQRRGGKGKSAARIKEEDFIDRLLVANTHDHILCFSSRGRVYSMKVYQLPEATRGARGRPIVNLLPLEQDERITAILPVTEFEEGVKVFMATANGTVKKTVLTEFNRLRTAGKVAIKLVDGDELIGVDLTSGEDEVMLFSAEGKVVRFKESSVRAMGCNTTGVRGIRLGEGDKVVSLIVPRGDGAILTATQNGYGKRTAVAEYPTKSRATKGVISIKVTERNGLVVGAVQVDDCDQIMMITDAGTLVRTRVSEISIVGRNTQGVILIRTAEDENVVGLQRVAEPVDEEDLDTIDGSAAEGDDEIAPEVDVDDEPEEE

This test deals with T1, DNA gyrase of Escherichia coli (Escherichia coli, UniProt P0AES4+P0AES6).
T1 construct: purchased John Innes Enterprises #K0001
Description: DNA gyrase inhibition (supercoiling assay kit), Exp. Ex. 1-2. The settings on record: E. coli DNA gyrase supercoiling, relaxed pBR322, 37° C., 30 minutes. In kind it is biochemical.

With “2-(3′,4′-Dihydroxy)-5,7-dihydroxy-3-β-D-(2″,3″-di-p-flurobenzyloxy)glucosyl-4H-chromen-4-one [Compound 15h]”, the “Gyrase inhibitory activity IC50” value was 2.04 mg/L.
